# Screening results as filed in PubChem BioAssay.
# Only some compounds are listed: those with a hit (about 2.1% of all), similar ones and a draw of the others.
# miR-122 sensor = blocks miR-122 activity in Huh7 sensor cells | Huh7 miR-122 Renilla luciferase sensor, 48 h; neutral wells = 0, positive control = 100 | activation (reporter increase), % at 12.5 µM | 0.3% of 340,000 active | AID 602342;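 active = mean replicate activation score at least 90 and every replicate individually at or above 90; inconclusive = only one of the two criteria met; inactive = neither criterion met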;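 note: higher luciferase means less miR-122 activity so hits act as miR-122 inhibitors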
# MITF TRPM1 HTS = MITF TRPM1 promoter activation in melanoma cells. activation, % at 12.5 µM. SK-MEL-5 TRPM1-promoter luciferase, 24 h; % of positive control, neutral wells = 0. 0.75% of 300,000 active;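 active = mean activation of at least 80% with every replicate also reaching 80%; inconclusive = mean reaches 80% but some replicate falls short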;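 note: 0% = neutral control wells and 100% = parthenolide positive control wells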
# PGC1a acetyl inh = modulators of PGC1a acetylation. inhibition, % at 15.6 µM. U2OS PGC1a acetylation, AlphaScreen anti-acetyl-lysine; with virally co-expressed GCN5 acetyltransferase. 0.17% of 350,000 active. AID 651687;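 active = every replicate shows inhibition of at least 40%; inconclusive = mean inhibition at least 40% but some replicate below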;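 note: 0% = neutral control wells and 100% = positive control wells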
# MITF TRPM1 inh = MITF TRPM1 promoter inhibition in SK-MEL-5 cells. SK-MEL-5 TRPM1 promoter luciferase, 24 h. inhibition, % at 12.5 µM. 0.83% of 330,000 active. AID 488899;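 active = mean inhibition across replicates of 60% or more, whatever share of single replicates reaches that level; inconclusive = some that reach 60%, reason not given; inactive = mean inhibition across replicates below 60%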
# UUG fidelity = modulators of start codon recognition fidelity in yeast; AID 602363; activity score, % at 18.7 µM; S. cerevisiae UUG-firefly luciferase reporter, luminescence/redox ratio; 0.13% of 350,000 active;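 active = replicate mean at a twofold rise or more, about +100% in these data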;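 note: firefly luciferase made from a UUG start codon reports start codon fidelity; reporter light over untreated wells divided by growth signal over untreated wells; some hits fall short of that in this replicate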
# Wnt act = activates Wnt/beta-catenin signaling in a reporter cell assay; activator, plate reader; 1.2% of 300,000 active; activation, % at 9.35 µM; AID 743398; in the data active = activation above about 30%, passing the limit was not always enough; inconclusive = no clear call, values can overlap the other calls;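 note: 0% = neutral control wells and 100% = positive control wells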
# Numbers without * were called inactive; u = inconclusive; x = not tested or not shown; ! = not active in a repeat; [ ] = dose if it differs, or a comment.
molecule	MITF TRPM1 HTS	miR-122 sensor	MITF TRPM1 inh	Wnt act	PGC1a acetyl inh	UUG fidelity
NS(=O)(=O)c1ccc(CNC(=O)c2ccc(S(=O)(=O)C(F)F)cc2)cc1	3.6	-9.2	0.3	36.1*	17.5	-9.1
CC(C)c1ccc(-n2c(-c3ccccc3)c[n+]3c2CCc2ccccc2-3)cc1	-88.2	x	88.4*	-2.8	-4.5	x
COc1ccc(-c2cn(-c3ccc(OC)cc3)c3[n+]2-c2ccccc2CC3)cc1	-68.3	x	69.1*	-3.2	x	x
COc1ccc(-c2c[n+]3c(n2-c2ccccc2)CCCCC3)cc1	-21.8	x	26.3	-14.1	x	-7.0
COc1ccccc1-n1c(-c2ccccc2)c[n+]2c1CCc1ccccc1-2	-58.0	-28.8	67.4*!	-3.4	-19.2	-9.4
COc1ccccc1-n1c(-c2ccccc2)c[nH]c1=S	-3.5	x	2.1	4.3	9.0	x
COc1ccc(-n2c(-c3ccc(Br)cc3)c[n+]3c2CCc2ccccc2-3)cc1	-96.0	x	97.5*	3.2	x	x
C[C@H]1CN([C@@H](C)CO)C(=O)CCCn2cc(nn2)CO[C@@H]1CN(C)Cc1ccc2c(c1)OCCN2C	x	5.0[16.7 µM]	x	x	-3.5	x
C[C@@H]1CN([C@@H](C)CO)C(=O)c2cccc(NS(=O)(=O)c3ccccc3)c2O[C@H]1CN(C)Cc1ccccc1	x	73.2[16.7 µM]	x	x	5.9	4.6
O=C(c1ccco1)N1CCN(c2ccc(Cl)cc2)CC1	92.8*	-7.5	-83.5	22.3	-0.2	-11.6
O=C(Nc1nc2ccc(Br)cc2s1)c1ccco1	43.6	3.8	-39.9	4.7	-18.2	-25.4
O=C(Nc1ccc(Cl)cc1)c1ccco1	45.2	-7.0	-41.8	45.4*	14.1	-11.1
O=C(Nc1nc2ccc(Cl)cc2s1)c1ccco1	13.6	116.1*	-11.6	u	2.2	-20.4
CC(=O)Nc1ccc(NC(=O)c2ccco2)cc1	30.0	-2.6	-35.7	x	-6.1	-8.7
O=C(Nc1nc2c(F)cc(F)cc2s1)c1ccco1	x	x	x	45.5*	x	-17.5
CC1CC1C(=O)Nc1nc2ccc(Cl)cc2s1 (stereo not given)	5.5	x	-13.3	54.0*	x	x
COc1cc2sc(NC(=O)c3ccco3)nc2cc1Cl	63.0	42.9	-60.4	u	-2.3	-15.3
Cc1cc2sc(NC(=O)c3ccco3)nc2cc1Cl	x	6.6	-54.6	30.4*	2.7	-9.4
O=C(Nc1nc2c(ccc3ccccc32)s1)c1ccco1	19.9	50.6	-26.8	37.6*	-13.1	-16.6
O=C(C1=C(O)C(=O)N(c2nc3ccc(Cl)cc3s2)C1c1ccco1)c1ccco1 (stereo not given)	-13.9	x	13.8	32.6*	-7.9	-10.6
Cc1noc(C)c1C(=O)Nc1nc2ccc(Cl)cc2s1	49.7	3.9	-46.7	10.6	6.9	-0.1
Cc1noc(C)c1C(=O)Nc1nc2ccc(F)cc2s1	66.3	-5.7	-66.1	58.8*	4.6	-27.5
CCN1CCN(c2ccc(NC(=O)c3ccco3)cc2)CC1	86.0*	-7.9	-93.6	15.8	-6.1	-20.7
CCCC(=O)N1CCN(c2ccc(NC(=O)c3ccco3)cc2)CC1	4.5	11.6	-8.1	3.3	-8.5	-6.4
C[C@@H]1CN([C@@H](C)CO)C(=O)Cc2cc(NC(=O)Nc3ccc4c(c3)OCO4)ccc2O[C@H]1CN(C)CC1CCCCC1	x	-6.6[16.7 µM]	x	x	-9.0	-2.4
CCCCNC(=O)C1(C)CCCCN1C(=O)c1cccs1 (stereo not given)	x	-9.2	x	39.2*	-1.1	-6.7
CCCCNC(=O)C1(C)CCCCN1C(=O)c1sccc1C (stereo not given)	x	-3.4	x	-2.6	-0.8	-20.1
CCCCNC(=O)C1(C)CCCCN1C(=O)c1c(C)noc1C (stereo not given)	x	0.0	x	32.7*	1.6	-13.8
CCCCNC(=O)C1(C)CCCCN1C(=O)c1ccno1 (stereo not given)	x	-1.9	x	-0.1	2.0	-7.1
C[C@@H]1CN([C@H](C)CO)C(=O)c2cc(NS(=O)(=O)c3cn(C)cn3)ccc2O[C@H]1CN(C)S(=O)(=O)c1ccc(F)cc1	x	-1.0[16.7 µM]	x	x	0.3	-8.7
O=C(/C=C/c1ccc2c(c1)OCO2)Nc1nc(-c2ccccc2)cs1	-12.7	0.4	13.8	x	-6.1	-9.9
O=C(/C=C/c1ccc2c(c1)OCO2)Nc1nncs1	x	-0.9	x	61.5*	26.3	16.0
Cc1cc(C)nc(NC(=O)/C=C/c2ccc3c(c2)OCO3)c1	115.5*	-5.5	-111.2	44.2*	12.0	-6.5

# Structures above that bear a hit mark in MITF TRPM1 inh.
molecule	MITF TRPM1 HTS	miR-122 sensor	MITF TRPM1 inh	Wnt act	PGC1a acetyl inh	UUG fidelity
CC(C)c1ccc(-n2c(-c3ccccc3)c[n+]3c2CCc2ccccc2-3)cc1	-88.2	x	88.4*	-2.8	-4.5	x
COc1ccc(-c2cn(-c3ccc(OC)cc3)c3[n+]2-c2ccccc2CC3)cc1	-68.3	x	69.1*	-3.2	x	x
COc1ccccc1-n1c(-c2ccccc2)c[n+]2c1CCc1ccccc1-2	-58.0	-28.8	67.4*!	-3.4	-19.2	-9.4
COc1ccc(-n2c(-c3ccc(Br)cc3)c[n+]3c2CCc2ccccc2-3)cc1	-96.0	x	97.5*	3.2	x	x
